In ChEMBL document CHEMBL5126625, “Discovery of AZD4831, a Mechanism-Based Irreversible Inhibitor of Myeloperoxidase, As a Potential Treatment for Heart Failure with Preserved Ejection Fraction” (J Med Chem, 2022):

Experiments:
Myeloperoxidase [1] = target: T1, Myeloperoxidase (Homo sapiens, UniProt P05164); test: Inhibition of MPO in human HL-60 cells measured after 15 mins in presence of H2O2 by chemiluminescence assay; assay type: cell-based
T1 sequence (P05164 whole entry): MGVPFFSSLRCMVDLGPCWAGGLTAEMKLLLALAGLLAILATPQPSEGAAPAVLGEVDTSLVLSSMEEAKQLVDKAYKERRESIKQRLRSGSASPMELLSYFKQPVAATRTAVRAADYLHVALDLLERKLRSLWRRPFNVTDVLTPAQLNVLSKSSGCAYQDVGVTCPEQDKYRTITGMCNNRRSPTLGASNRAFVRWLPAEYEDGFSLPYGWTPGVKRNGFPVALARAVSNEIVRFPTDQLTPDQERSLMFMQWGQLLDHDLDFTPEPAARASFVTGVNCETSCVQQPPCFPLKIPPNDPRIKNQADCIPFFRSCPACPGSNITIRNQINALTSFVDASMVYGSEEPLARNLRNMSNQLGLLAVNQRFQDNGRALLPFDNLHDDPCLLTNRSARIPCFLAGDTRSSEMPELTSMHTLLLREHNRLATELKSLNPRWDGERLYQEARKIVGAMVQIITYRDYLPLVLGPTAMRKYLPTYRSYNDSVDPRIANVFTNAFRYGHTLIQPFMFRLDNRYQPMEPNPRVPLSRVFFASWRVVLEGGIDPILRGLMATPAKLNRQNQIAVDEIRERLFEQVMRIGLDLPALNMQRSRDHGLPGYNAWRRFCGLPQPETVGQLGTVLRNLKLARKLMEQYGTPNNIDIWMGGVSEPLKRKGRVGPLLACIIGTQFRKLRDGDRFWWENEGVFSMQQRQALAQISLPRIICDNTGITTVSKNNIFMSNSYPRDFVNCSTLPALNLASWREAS

Myeloperoxidase [2] = target: T1, Myeloperoxidase; test: Displacement of benzhydroxamic acid from native state MPO (unknown origin) by 1D NMR reporter assay

| SMILES | IC50 (Myeloperoxidase [1]) [µM] | Kd (Myeloperoxidase [2]) [µM] |
| --- | --- | --- |
| COc1ccc(Cl)cc1-c1cc(=O)[nH]c(=S)n1CC(N)=O [PF-06282999] | 35.5 |  |
| NCc1cc(Cl)ccc1Cn1c(=S)[nH]c(=O)c2[nH]ccc21 |  | 3.98 |
